{"sequences": {"note": "Protein sequences, listed by entry. Tags and fused reporters are not part of them.", "UniProt Q9NWZ3, whole entry": "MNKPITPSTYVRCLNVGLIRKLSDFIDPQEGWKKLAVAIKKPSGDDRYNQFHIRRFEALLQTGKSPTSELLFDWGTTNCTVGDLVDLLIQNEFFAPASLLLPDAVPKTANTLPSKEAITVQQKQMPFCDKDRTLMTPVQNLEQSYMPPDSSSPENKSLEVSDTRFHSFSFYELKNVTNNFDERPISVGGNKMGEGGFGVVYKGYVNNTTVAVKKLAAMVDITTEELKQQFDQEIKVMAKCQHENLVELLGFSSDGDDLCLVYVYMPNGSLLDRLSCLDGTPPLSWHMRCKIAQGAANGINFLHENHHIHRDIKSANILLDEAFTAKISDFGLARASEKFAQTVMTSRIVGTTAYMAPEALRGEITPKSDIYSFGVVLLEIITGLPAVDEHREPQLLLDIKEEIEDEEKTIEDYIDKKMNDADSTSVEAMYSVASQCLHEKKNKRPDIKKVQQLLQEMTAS"}, "source": "patent US20230099344A1", "about": "“COMPOUNDS AND METHODS FOR THE TARGETED DEGRADATION OF IRAK-4” (Arvinas Operations, Inc., priority 2021, published 2023)", "target": "IRAK-4 (Homo sapiens, UniProt Q9NWZ3)", "experiment": "IRAK-4 ELISA, PBMC degradation", "description": "Reagents: Human IRAK-4 Matched Antibody Pair Kit (Abcam ab218182) and ELISA Accessory Pack (Abcam ab210905).\nCell Treatment and Lysis:\n1. OCI-Ly10: 200,000 cells are seeded at 1×10^6/ml in 96-well U-bottom plates 200 ul per well, treated with compound the same day. Incubate overnight. 2. PBMC: 800,000 cells are seeded at 2×10^6/ml in 96-well U-bottom deep-well plates, 400 ul per well, treated with compound the same day. Incubate overnight.\nCell lysate is collected and analyzed by ELISA for IRAK-4 levels."}
{"smiles": "CC(C)Oc1cc2c(cc1NC(=O)c1cnn3cccnc13)CN([C@H]1CC[C@H](OC3CN(c4ccc5c(c4)C(=O)N(C4CCC(=O)NC4=O)C5=O)C3)CC1)C2=O", "note": "(stereo partly drawn)", "values": [{"measurement": "DC50", "setting": "read-out: PBMC DC50, treated overnight", "value": "1 to 5", "unit": "nM"}, {"measurement": "PBMC DC90", "setting": "treated overnight", "value": "B (B represents a DC90 value ≥10.0 nM and <25.0 nM)"}, {"measurement": "PBMC Dmax", "setting": "treated overnight", "value": "A (A represents a Dmax value ≥90)"}]}
